The list shows a part of the results, in another mix than the full data. Some results for these compounds are left out of this collection, so the calls shown say nothing about other tests. Activity calls are given as the source filed them.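 How the source made its calls: active means inhibition above the mean over all tested compounds plus 3 SD (cut at about 3.6% in these data); inactive means the rest.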

The assay in a line: relief of DAX-1 repression of SF-1 activity – cell-based, luminescence, SF-1 (NR5A1), full-length DAX-1, primary screen (AID 652010).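 Further: 0% = DAX-1 cells with DMSO and 100% = cells lacking DAX-1 with DMSO.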 The settings on record: HEK293T StAR-luciferase reporter, SF-1/DAX-1 repression relief; at 6.8 µM; stronger effect = higher value. For orientation: In a reporter assay the amount or activity of a reporter protein is the signal.
For orientation: inhibition means the relative decrease from the control value, in per cent. Consider `COc1cc(C(=O)NCC2(N(C)C)CCCCC2)c([N+](=O)[O-])cc1OC`, for which the inhibition is inactive: -0.38%.
For the compound `CN(C)C1(CNC(=O)c2ccc(Br)cc2)CCCCC1`, the inhibition is inactive: -0.6%.
As to `O=C(NCC1(N2CCCCC2)CCCCC1)c1cccc(Cl)c1`, the inhibition is inactive: 1.26%.
In the case of `COc1cccc(C(=O)NCC2(N3CCCCC3)CCCCC2)c1`, the inhibition was inactive: 1.22%.
The same measure for `COc1ccc(Cl)cc1C(=O)NCC1(N(C)C)CCCCC1`: inactive: 0.1%; for `O=C(OC1CN2CCC1CC2)C(CO)(c1ccccc1)c1ccccc1` (stereo unspecified): inactive: 0.2%; for `CC(C)Oc1ccc(C(=O)NCC2(N(C)C)CCCCC2)cc1`: inactive: 0.44%.
The same measure for `O=C(OCCN1CCCC1)C(O)(c1ccccc1)c1ccccc1`: inactive: 0.26%; for `CN(C)c1cccc(C(=O)NCC2(N(C)C)CCCCC2)c1`: inactive: 0.16%; for `C=C(C)C#CC(O)(C(=O)OC1CCN(C)CC1)c1ccccc1` (stereo unspecified): inactive: -0.5%.
To `COc1ccc(Br)c(C(=O)NCC2(N3CCCCC3)CCCCC2)c1` belongs inactive: 0.43%; to `CN1[C@@H]2CC[C@H]1CC(OC(=O)C(O)(c1ccccc1)c1ccccc1)C2` (stereo partly specified), inactive: 0.99%; to `O=C(NCC1(N2CCCCC2)CCCCC1)c1cc([N+](=O)[O-])ccc1Cl`, inactive: 0.37%.
In the case of `Cc1ccc(C(=O)NCC2(N3CCCCC3)CCCCC2)cc1`, the inhibition was inactive: 0.91%.
The same measure for `CCN(CC)CC(C)C(C)OC(=O)C(O)(c1ccccc1)c1ccccc1` (stereo unspecified): inactive: 0.92%; for `COc1cc(SC)ccc1C(=O)NCC1(N(C)C)CCCCC1`: inactive: -0.23%; for `CC(C)N1C(=O)CC2(CCN(CCOC(=O)C(O)(c3ccccc3)c3ccccc3)CC2)C1=O`: inactive: -0.51%.
Regarding `Cc1ccccc1C(=O)NCC1(N2CCCCC2)CCCCC1`, the inhibition is inactive: -0.46%.
With `CN(C)C1CCCC1OC(=O)C(O)(c1ccccc1)c1ccccc1` (stereo unspecified), the inhibition was inactive: 0.26%.
In the case of `CN(C)c1ccc(C(=O)NCC2(N(C)C)CCCCC2)cc1`, the inhibition was inactive: 0.79%.
To `COc1ccc(C(=O)NCC2(N(C)C)CCCCC2)cc1` belongs inactive: -0.57%; to `Cc1cc(C(=O)NCC2(N3CCCCC3)CCCCC2)ccc1[N+](=O)[O-]`, inactive: 0.97%; to `CCN1CCCC(OC(=O)C2(O)c3ccccc3C=Cc3ccccc32)C1` (stereo unspecified), inactive: -0.4%.
With `O=C(NCC1(N2CCCCC2)CCCCC1)c1cccc(Br)c1`, the inhibition is inactive: 0.86%.
To `C=CCN1CCN(CCOC(=O)C(O)(c2ccccc2)c2ccccc2)CC1` belongs inactive: 0.72%.
To `O=C(NCC1(N2CCCCC2)CCCCC1)c1cc(F)c(F)cc1Cl` belongs inactive: 0.46%.

Values taken from PubChem BioAssay AID652010 (The Scripps Research Institute Molecular Screening Center, 2013).
